Assay results reported in US5374618A, “Calcitonin peptides, and gene related pharmaceutical compositions” (Celltech Limited, priority 1983, dated 1994).
Entries after “also recorded” stand apart in the source; their conditions may differ.

Key:
[1] = tested on: pentobarbitone anaesthetised rat; test: Cardiovascular actions (mean arterial pressure, heart rate) after i.v. administration in anaesthetised rats; assay type: in vivo
Method: Groups of 4 to 6 male Sprague-Dawley rats (285-315 g) were anaesthetised with sodium pentobarbitone (60 mg Kg^-1 i.p.). The trachea, left carotid artery and left jugular vein were cannulated. Blood pressure was recorded from the carotid artery on a Grass polygraph via a Statham P23 ID pressure transducer and mean arterial pressure derived from the trace. Heart rate was measured by a tachograph (Grass model 7P4) triggered by the blood pressure signal. Human CGRP was obtained either crude off the resin, then purified, or latterly in a purified form from Peninsula Laboratories. Purified rat CGRP was from the same source. All synthetic preparations were subject to mass spectrometry (M-Scan Ltd.) to confirm structure and purity before use. Human CGRP, rat CGRP, propranolol hydrochloride (Sigma), mepyramine maleate (Sigma), cimetidine hydrochloride (SK & F), histamine diphosphate (Sigma) were dissolved in 0.9% w/v saline. All compounds were administered intravenously except for mepyramine (s.c.). Saline, human CGRP (o) and rat CGRP (Δ) were administered cumulatively in volumes of 0.1 ml per rat at 2 min intervals. The peak fall in mean arterial pressure (MAP) and heart rate (HR) after 2 min was measured.
In the pentobarbitone anaesthetised rat, intravenous human CGRP evoked a rapid dose-related fall in blood pressure, maximal within 1 min, and representing a 50% decrease in blood pressure at a dose of 0.28 nmol Kg^-1. […] Since a fall in blood pressure may be evoked indirectly by basic peptides through the release of histamine (Goth, A. (1973) In Histamine and antihistamines (Ed. Schachter, M.) Vol. I. Int. Encyclopedia of Pharmacology and Therapeutics, Section 74, 25-43 Pergamon Press, Oxford), and human CGRP is a relatively basic peptide, we have examined the effect of pretreatment with the histamine H1 -receptor antagonist mepyramine and the histamine H2 -receptor antagonist cimetidine prior to human CGRP administration. […] We have investigated this possibility by i.v. administration of human CGRP after pretreatment with the β-adrenoceptor antagonist propranolol (in a dose sufficient to shift an isoprenaline dose-response curve to the right by 2 log units). […] The duration of the response to human CGRP was measured following administration of a single dose. Human CGRP 1 nmol. […]. […] Whilst 10 ug/kilo PDA-4 caused a drop in mean arterial pressure of 15-20 mm Hg and an increase in heart beat rate of 15-20 bpm. The mechanism of action of PDA-4 was not examined.

[2] = tested on: guinea-pig right atrial preparation; test: Rate and force of contraction of isolated guinea-pig right atrium; assay type: cell-based
Method: Male Dunkin Hartley guinea-pigs (280-400 g) were killed by cervical dislocation and exsanguinated. The heart was removed, the right atrium dissected out and mounted under 0.5 g tension in Krebs solution (mM): NaCl 118, KCl 4.7, CaCl2 2.5, KH2 PO4 1.18, NaHCO3 25, MgSO4 1.18 and glucose 11.1, at 34° C. bubbled with 95:5 02 :CO2. Atrial force and rate were measured isometrically by a Grass FT.03 transducer and recorded on a Grass polygraph. Single doses of either human or rat CGRP were given in a random order.

[3] = tested on: antibody raised against Tyr-(CGRP amino acids 25-37)-amide; test: Radioimmunoassay cross-reactivity with 125I-Tyr-(CGRP amino acids 25-37)-amide tracer; assay type: binding, rabbit; conditions: 1:12500 dilution of serum, 1800 cpm tracer, 400 μl assay
Method: Evidence that the fusion protein produced, contains CGRP protein sequence was determined by radioimmunoassay of HB101/pCAT-CGRP cell extracts. Cells from a 500 ml culture were harvested and lysed in a lysozyme/sodium deoxycholate mixture (5 ml), then treated with DNase for 30 mins. at 5° C. (Emtage J. S. et al PNAS (1983), 80, p 3671-3675). An equal volume of 0.1M Tris HCl pH 8.0, 0.1 mM EDTA, 5% (v/v) glycol, was then added, and the presence of human CGRP sequence determined in the extract. Radioimmunoassay was carried out in 0.05M phosphate buffer pH 7.4 in a final volume of 400 ul (see Girgis, S. I. et al J. Endocrinol 78, 372-382). Antiserum was raised in rabbits, using the known techniques, against Tyr-(CGRP amino acids 25-37)-amide and conjugated to chick ovalbumin (Reichlin, M.1980, Meth.Enzymol 70 159-165) and against ^125 I Tyr-(CGRP amino acids 25-37)-amide tracer.
The tracer was iodinated using the Chloramine T method of Hunter and Greenwood. It can be seen from FIG. 5 that HB101/pCAT-CGRP protein extract displaced the tracer (5000 cpm) using a 1:10000 serum dilution with a displacement curve similar to that of the human CGRP standard (chemically synthesised). No displacement was observed using protein extract which had been previously digested overnight with trypsin (0.5 mg/ml) overnight at 37° C. followed by inactivation of the trypsin with trasylol. […]

[4] = i.v., cumulative doses at 2 min intervals, anaesthetised rat
[5] = i.v., pentobarbitone anaesthetised rat
[6] = isolated atrium, Krebs solution, 34° C.

human CGRP: amidated 37 amino acid human calcitonin gene related peptide, chemically synthesised, Mr 3786
drop in mean arterial pressure ([1]; 1 ug/kilo i.v.): 50 mmHg | increase in heart beat rate ([1]; 1 ug/kilo i.v.): 25-30 b.p.m. | fall in mean arterial pressure (MAP) [1, 4]: dose-dependent fall in MAP | increase in heart rate (HR) [1, 4]: increase in HR; also recorded: small but significant increases in heart rate | dose representing a 50% decrease in blood pressure [1, 5]: 0.28 nmol/kg | time to maximal fall in blood pressure [1, 5]: ≤ 1 min | hypotensive effect after mepyramine and cimetidine pretreatment ([1]; mepyramine 12.4 μmol Kg^-1 s.c. and cimetidine 59.5 μmol Kg^-1 infusion over 30 min): did not significantly alter the hypotensive effect | increase in heart rate after propranolol pretreatment ([1]; propranolol 3.4 μmol Kg^-1 i.v. 5 min before human CGRP): did not prevent the increase in heart rate | time taken for the blood pressure to recover by 50% ([1]; single dose 1 nmol Kg^-1 i.v.): 3.8 ± 0.5 min | arterial pressure after single dose ([1]; single dose 1 nmol Kg^-1 i.v., lowered from 125.0±7.6 mm Hg): 68.3±9.3 mm Hg | force of contraction of right atrium [2, 6]: concentration dependent increases | rate of contraction of right atrium [2, 6]: concentration dependent increases | responses (rate and force) in presence of propranolol or cimetidine ([2]; propranolol 300 nM or cimetidine 100 μM, equilibrated 30 min): did not alter the responses | cross-reaction with the antibody (displacement of tracer) [3]: expected displacement curve
